From patent publication US20180237542A1 come the findings set out here.

For this test, the target named is human TNF-α (human) (UniProt P01375). Put plainly: cell-based or functional assay.
With iPS: 376601 (bispecific antibody), the hu TNFa (pM) was found to be 96.5 pM and the hu TNFa Fold Change came to 0.666 fold.
The corresponding values for iPS: 376605 (bispecific antibody) are 942 pM and 6.49 fold.
On the same counts, the results for iPS: 376629 (bispecific antibody) are 22.4 pM and 0.154 fold.
Take iPS: 376637 (bispecific antibody): the hu TNFa (pM) turned out to be 27.5 pM and the hu TNFa Fold Change was found to be 0.19 fold.
On the same counts, the results for iPS: 376683 (bispecific antibody) are 35.2 pM and 0.243 fold.
The corresponding values for iPS: 376693 (bispecific antibody) are 29.5 pM and 0.203 fold.
The corresponding values for iPS: 376709 (bispecific antibody) are 80.4 pM and 0.554 fold.
iPS: 376715 (bispecific antibody) returned a hu TNFa (pM) of 64.2 pM and a hu TNFa Fold Change of 0.443 fold.
In the case of iPS: 376826 (bispecific antibody), the hu TNFa (pM) is 80.8 pM and the hu TNFa Fold Change came out at 0.557 fold.
On the same counts, the results for iPS: 376830 (bispecific antibody) are 73.3 pM and 0.506 fold.
On the same counts, the results for iPS: 376854 (bispecific antibody) are 30.8 pM and 0.212 fold.
Turning to iPS: 376862 (bispecific antibody), the hu TNFa (pM) stood at 34.4 pM and the hu TNFa Fold Change is 0.237 fold.
Substance iPS: 376931 (bispecific antibody) displayed a hu TNFa (pM) of 26.8 pM and a hu TNFa Fold Change of 0.185 fold.
The corresponding values for iPS: 376949 (bispecific antibody) are 49.1 pM and 0.339 fold.
On the same counts, the results for iPS: 376955 (bispecific antibody) are 57.1 pM and 0.394 fold.
On the same counts, the results for iPS: 377073 (bispecific antibody) are 36.8 pM and 0.254 fold.
Substance iPS: 377077 (bispecific antibody) came in with a hu TNFa (pM) of 49.7 pM and a hu TNFa Fold Change of 0.342 fold.
In turn, iPS: 377107 (bispecific antibody) had a hu TNFa (pM) of 16.8 pM and a hu TNFa Fold Change of 0.116 fold.
The corresponding values for iPS: 377116 (bispecific antibody) are 15.2 pM and 0.105 fold.
The substance iPS: 377166 (bispecific antibody) registered a hu TNFa (pM) of 17 pM and a hu TNFa Fold Change of 0.117 fold.
The corresponding values for iPS: 377193 (bispecific antibody) are 30.9 pM and 0.213 fold.
On the same counts, the results for iPS: 377200 (bispecific antibody) are 38.4 pM and 0.265 fold.
